Test results as given in patent publication US20130136691A1, “GASTRIN […] PEPTIDE COMPOUNDS” (priority 2008, published 2013).
Read-outs that look alike come from different tables or passages of the source.

By UniProt entry, the sequences of proteins in these tests, tags left out. Where a name states a change or a piece, a line headed by the entry shows the natural chain unless it says otherwise.
UniProt P30550: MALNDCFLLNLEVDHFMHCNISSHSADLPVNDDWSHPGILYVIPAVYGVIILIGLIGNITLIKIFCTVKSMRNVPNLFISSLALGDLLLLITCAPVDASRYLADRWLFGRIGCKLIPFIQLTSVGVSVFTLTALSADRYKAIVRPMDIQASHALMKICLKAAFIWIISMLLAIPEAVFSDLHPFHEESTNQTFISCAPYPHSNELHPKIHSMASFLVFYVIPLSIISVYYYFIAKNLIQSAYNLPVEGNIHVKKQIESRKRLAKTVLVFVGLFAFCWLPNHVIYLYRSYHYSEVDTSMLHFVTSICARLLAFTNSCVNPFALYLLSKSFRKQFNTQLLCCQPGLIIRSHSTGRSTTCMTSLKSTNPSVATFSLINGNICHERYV
UniProt P28336: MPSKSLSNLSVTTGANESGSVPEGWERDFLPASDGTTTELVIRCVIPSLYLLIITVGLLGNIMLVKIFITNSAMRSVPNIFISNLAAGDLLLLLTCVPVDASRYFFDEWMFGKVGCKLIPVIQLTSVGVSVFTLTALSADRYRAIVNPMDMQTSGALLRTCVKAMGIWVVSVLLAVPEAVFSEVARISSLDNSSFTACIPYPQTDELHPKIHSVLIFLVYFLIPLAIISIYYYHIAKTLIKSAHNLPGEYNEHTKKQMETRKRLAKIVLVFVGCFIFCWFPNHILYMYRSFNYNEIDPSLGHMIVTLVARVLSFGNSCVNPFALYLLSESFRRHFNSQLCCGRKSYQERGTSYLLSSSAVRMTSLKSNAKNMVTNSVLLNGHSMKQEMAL
UniProt P32247: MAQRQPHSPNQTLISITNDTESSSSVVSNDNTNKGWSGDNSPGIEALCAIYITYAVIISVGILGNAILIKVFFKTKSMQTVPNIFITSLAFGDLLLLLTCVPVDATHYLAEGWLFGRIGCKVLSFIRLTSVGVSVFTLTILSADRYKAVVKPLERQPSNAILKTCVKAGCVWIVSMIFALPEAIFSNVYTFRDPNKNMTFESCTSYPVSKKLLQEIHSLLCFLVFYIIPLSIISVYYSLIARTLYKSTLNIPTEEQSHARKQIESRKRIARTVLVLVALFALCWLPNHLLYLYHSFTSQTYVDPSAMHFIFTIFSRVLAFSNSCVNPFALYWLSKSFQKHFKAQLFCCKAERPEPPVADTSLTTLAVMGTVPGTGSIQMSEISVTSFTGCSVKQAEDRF

How the values were obtained:
[1] = tested on: PC3 tumor-bearing nude mice; assay type: in vivo; conditions: 177Lu-labeled, 200 μCi/kg i.v.
[2] = tested on: human PC-3 nude mouse model; assay type: in vivo; conditions: 1 hour
[3] = tested on: human PC-3 nude mouse model; assay type: in vivo; conditions: 177Lu complex, i.v.
[4] = biological target: T1, GRP-R (Homo sapiens, UniProt P30550); assay: Competition assay with 125I-BBN for GRP-R in PC3 cells (IC50); assay type: binding; design: host or cells: PC3 / PC-3 human prostate cancer cells (intact, plated)
[5] = biological target: NMB-R (Homo sapiens, UniProt P28336); conditions: read-out: IC50, NMB-R; human ileal carcinoid tissue; radiotracer 125I-[DTyr6, βAla11, Phe13, Nle14]-BBN(6-14); mean ± SEM
[6] = biological target: T1, GRP-R; conditions: read-out: IC50, GRP-R; human prostate carcinoma tissue; radiotracer 125I-[DTyr6, βAla11, Phe13, Nle14]-BBN(6-14); mean ± SEM
[7] = biological target: BB3 (Homo sapiens, UniProt P32247); conditions: read-out: IC50, BB3; human bronchial carcinoid tissue; radiotracer 125I-[DTyr6, βAla11, Phe13, Nle14]-BBN(6-14); mean ± SEM
[8] = concentration of compound to inhibit 50% binding of iodinated bombesin to a GRP receptor on cells, read-out: IC50

Row | Substance | Blood (% ID) ([1]; 1 hr) | Kidneys ([1]; 1 hr) [% ID/g] | Liver (% ID) ([1]; 1 hr) | Pancreas ([1]; 1 hr) [% ID/g] | Tumor ([1]; 1 hr) [% ID/g] | Blood (% ID) ([1]; 24 hr) | Kidneys ([1]; 24 hr) [% ID/g] | Liver (% ID) ([1]; 24 hr) | Pancreas ([1]; 24 hr) [% ID/g] | Tumor ([1]; 24 hr) [% ID/g] | IC50 [4, 8] [nM] | also measured
1 | N-[4-[[[[[4,7,10-Tris(carboxymethyl)-1,4,7,10-tetraazacyclododec-1-yl]acetyl]amino]acetyl]amino]benzoyl]-L-glutaminyl-L-tryptophyl-L-alanyl-L-valyl-glycyl-L-histidyl-L-leucyl-L-methioninamide [Compound L70] | 0.33 | 6.01 | 0.77 | 42.34 | 6.42 | 0.03 | 2.31 | 0.10 | 40.24 | 3.50 | – | uptake in the mouse pancreas compared with control compound [1]: much higher; uptake in the tumor compared with control DO3A-monoamide-Aoc-QWAVGHLM-NH2 ([1]; 1 and 24 h): much higher; gastrointestinal radioactivity after L70 pre-treatment ([2]; L70 0.64 μg i.v. 5, 15 and 60 minutes prior to 177Lu-L70): decreases; radioactivity in the pancreas after L70 pre-treatment ([2]; L70 0.64 μg i.v. 5 or 15 minutes prior to 177Lu-L70): significant decrease; Blood 24 h % ID ([3]; 24 h): 0.02 ± 0.00 % ID; Blood 7 d % ID ([3]; 7 d): 0.00 ± 0.00 % ID
2 | N-[6-[[[[[4,7,10-Tris(carboxymethyl)-1,4,7,10-tetraazacyclododec-1-yl]acetyl]amino]acetyl]amino]naphthoyl]-L-glutaminyl-L-tryptophyl-L-alanyl-L-valyl-glycyl-L-histidyl-L-leucyl-L-methioninamide [Compound L234] | – | – | – | – | – | – | – | – | – | – | 3 | –
3 | DO3A-monoamide-8-amino-octanoic acid-BBN (7-14) [reference compound] | 0.44 | 7.65 | 0.38 | 28.60 | 3.66 | 0.03 | 1.03 | 0.04 | 1.01 | 1.52 | – | –
4 | N-[(3β,5β,12α)-3-[[[4,7,10-Tris(carboxymethyl)-1,4,7,10-tetraazacyclododec-1-yl]acetyl]amino]-glycyl-4-aminobenzoyl-D-tyrosinyl-L-glutaminyl-L-tryptophyl-L-alanyl-L-valyl-betaalanyl-L-histidyl-L-phenylalanyl-L-norleucinamide [Compound L222] | – | – | – | – | – | – | – | – | – | – | – | IC50 ([4]; title of Table 19, PC3/GRP-R, read-out: level at which the universal agonists compete (IC50)): ~50 nM
5 | [DTyr^6, βAla^11, Phe^13, Nle^14]-BBN(6-14) [Universal ligand] | – | – | – | – | – | – | – | – | – | – | – | IC50 [5]: 0.8 ± 0.1 nM; IC50 [6]: 0.7 ± 0.1 nM; IC50 [7]: 1.1 ± 0.1 nM
6 | N-[(3β,5β,12α)-3-[[[4,7,10-Tris(carboxymethyl)-1,4,7,10-tetraazacyclododec-1-yl]acetyl]amino]-4-aminobenzoyl-glycyl-L-glutaminyl-L-tryptophyl-L-alanyl-L-valyl-glycyl-L-histidyl-L-leucyl-L-methioninamide [Compound L204] | – | – | – | – | – | – | – | – | – | – | 50 | –
